Literature values, collected in patent publication US10259779B2 (WAYNE STATE UNIVERSITY, priority 2016, dated 2019).

Target: T1, HDAC8 (Homo sapiens, UniProt Q9BY41)
T1 sequence (Q9BY41 1-377): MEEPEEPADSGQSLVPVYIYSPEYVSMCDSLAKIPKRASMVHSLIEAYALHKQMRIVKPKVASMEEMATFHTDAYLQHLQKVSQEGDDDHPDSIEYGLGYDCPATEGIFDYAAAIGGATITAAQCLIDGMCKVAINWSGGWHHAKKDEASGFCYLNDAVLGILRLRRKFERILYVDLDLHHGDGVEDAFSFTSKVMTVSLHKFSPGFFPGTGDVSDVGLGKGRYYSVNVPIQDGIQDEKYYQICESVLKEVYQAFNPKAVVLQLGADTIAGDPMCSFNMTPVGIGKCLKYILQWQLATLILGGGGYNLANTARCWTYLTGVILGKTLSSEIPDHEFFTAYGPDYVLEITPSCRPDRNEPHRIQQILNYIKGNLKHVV
Conditions: literature; BRD-73954: over HDAC1, 2, and 3; cited from earlier work

SMILES: COc1ccc(Cn2ccc3ccc(C(=O)NO)cc32)cc1 [PCI-34051]
- fold selectivity to HDAC8 (reported): at least 400 fold
